#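 Test compounds were applied to cells in 96-well plates for 48 hours at 5 doses. GI50 = concentration required for 50% inhibition of growth. TGI: concentration producing complete growth inhibition.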
# Key:
# Test in all cases: inhibition of tumour cell growth, NCI panel, 48 h
# 786-0 renal = system: 786-0 renal
# A498 renal = system: A498 renal
# A549 NSCLC = system: A549 NSCLC
# ACHN renal = system: ACHN renal
# BT-549 breast = system: BT-549 breast
# CAKI-1 renal = system: CAKI-1 renal
# CCRF-CEM leukemia = system: CCRF-CEM leukemia
# DU-145 prostate = system: DU-145 prostate
# HCC-2998 colon = system: HCC-2998 colon
# HCT-116 colon = system: HCT-116 colon
# HCT-15 colon = system: HCT-15 colon
# HL-60(TB) leukemia = system: HL-60(TB) leukemia
# HOP-62 NSCLC = system: HOP-62 NSCLC
# HT29 colon = system: HT29 colon
# IGROV1 ovarian = system: IGROV1 ovarian
# K-562 leukemia = system: K-562 leukemia
# LOX IMVI melanoma = system: LOX IMVI melanoma
# M14 melanoma = system: M14 melanoma
# MALME-3M melanoma = system: MALME-3M melanoma
# MCF7 breast = system: MCF7 breast
# MDA-MB-231 breast = system: MDA-MB-231 breast
# MDA-MB-435 = system: MDA-MB-435
# MDA-N = system: MDA-N
# MOLT-4 leukemia = system: MOLT-4 leukemia
# NCI-H226 lung = system: NCI-H226 lung
# NCI-H23 lung = system: NCI-H23 lung
# NCI-H460 lung = system: NCI-H460 lung
# NCI-H522 lung = system: NCI-H522 lung
# OVCAR-3 ovarian = system: OVCAR-3 ovarian
# OVCAR-4 ovarian = system: OVCAR-4 ovarian
# OVCAR-5 ovarian = system: OVCAR-5 ovarian
# OVCAR-8 ovarian = system: OVCAR-8 ovarian
# PC-3 prostate = system: PC-3 prostate
# RPMI-8226 leukemia = system: RPMI-8226 leukemia
# SF-268 CNS = system: SF-268 CNS
# SK-MEL-2 melanoma = system: SK-MEL-2 melanoma
# SK-MEL-28 melanoma = system: SK-MEL-28 melanoma
# SK-MEL-5 melanoma = system: SK-MEL-5 melanoma
# SN12C renal = system: SN12C renal
# SNB-19 CNS = system: SNB-19 CNS
# SNB-75 CNS = system: SNB-75 CNS
# SR leukemia = system: SR leukemia
# SW-620 colon = system: SW-620 colon
# T-47D breast = system: T-47D breast
# TK-10 renal = system: TK-10 renal
# U251 CNS = system: U251 CNS
# UACC-257 melanoma = system: UACC-257 melanoma
# UACC-62 melanoma = system: UACC-62 melanoma
# UO-31 renal = system: UO-31 renal
structure (smiles),measurement,setting,value
O=C(N=Nc1ccc([N+](=O)[O-])cc1[N+](=O)[O-])NNc1ccc([N+](=O)[O-])cc1[N+](=O)[O-],GI50,786-0 renal,2.83 µM
same,TGI,786-0 renal,10.6 µM
same,GI50,A498 renal,2.51 µM
same,TGI,A498 renal,7.18 µM
same,GI50,A549 NSCLC,3.94 µM
same,TGI,A549 NSCLC,21.4 µM
same,GI50,ACHN renal,3.2 µM
same,TGI,ACHN renal,15.9 µM
same,GI50,BT-549 breast,2.34 µM
same,TGI,BT-549 breast,70.9 µM
same,GI50,CAKI-1 renal,3.8 µM
same,TGI,CAKI-1 renal,> 100 µM
same,GI50,CCRF-CEM leukemia,2.92 µM
same,TGI,CCRF-CEM leukemia,15.4 µM
same,GI50,DU-145 prostate,5.53 µM
same,TGI,DU-145 prostate,31 µM
same,GI50,HCC-2998 colon,2.72 µM
same,TGI,HCC-2998 colon,10.1 µM
same,GI50,HCT-116 colon,2.57 µM
same,TGI,HCT-116 colon,11 µM
same,GI50,HCT-15 colon,4.89 µM
same,TGI,HCT-15 colon,62.9 µM
same,GI50,HL-60(TB) leukemia,2.4 µM
same,TGI,HL-60(TB) leukemia,7.46 µM
same,GI50,HOP-62 NSCLC,5.32 µM
same,TGI,HOP-62 NSCLC,17 µM
same,GI50,HT29 colon,2.81 µM
same,TGI,HT29 colon,> 100 µM
same,GI50,IGROV1 ovarian,7.08 µM
same,TGI,IGROV1 ovarian,34.5 µM
same,GI50,K-562 leukemia,2.8 µM
same,TGI,K-562 leukemia,> 100 µM
same,GI50,LOX IMVI melanoma,3.57 µM
same,TGI,LOX IMVI melanoma,12.5 µM
same,GI50,M14 melanoma,3.99 µM
same,TGI,M14 melanoma,19 µM
same,GI50,MALME-3M melanoma,2.05 µM
same,TGI,MALME-3M melanoma,7.55 µM
same,GI50,MCF7 breast,1.4 µM
same,TGI,MCF7 breast,4.09 µM
same,GI50,MDA-MB-231 breast,3.52 µM
same,TGI,MDA-MB-231 breast,40.8 µM
same,GI50,MDA-MB-435,6.7 µM
same,TGI,MDA-MB-435,40.8 µM
same,GI50,MDA-N,7.21 µM
same,TGI,MDA-N,43.5 µM
same,GI50,MOLT-4 leukemia,2.95 µM
same,TGI,MOLT-4 leukemia,15.7 µM
same,GI50,NCI-H226 lung,3.12 µM
same,TGI,NCI-H226 lung,16.5 µM
same,GI50,NCI-H23 lung,2.41 µM
same,TGI,NCI-H23 lung,11.4 µM
same,GI50,NCI-H460 lung,3.31 µM
same,TGI,NCI-H460 lung,19.3 µM
same,GI50,NCI-H522 lung,2.07 µM
same,TGI,NCI-H522 lung,5.73 µM
same,GI50,OVCAR-3 ovarian,2.61 µM
same,TGI,OVCAR-3 ovarian,5.96 µM
same,GI50,OVCAR-4 ovarian,2.38 µM
same,TGI,OVCAR-4 ovarian,15.3 µM
same,GI50,OVCAR-5 ovarian,7.86 µM
same,TGI,OVCAR-5 ovarian,53.7 µM
same,GI50,OVCAR-8 ovarian,3.25 µM
same,TGI,OVCAR-8 ovarian,13.3 µM
same,GI50,PC-3 prostate,2.6 µM
same,TGI,PC-3 prostate,8.41 µM
same,GI50,RPMI-8226 leukemia,2.63 µM
same,TGI,RPMI-8226 leukemia,9.32 µM
same,GI50,SF-268 CNS,10.4 µM
same,TGI,SF-268 CNS,72.9 µM
same,GI50,SK-MEL-2 melanoma,1.97 µM
same,TGI,SK-MEL-2 melanoma,7.4 µM
same,GI50,SK-MEL-28 melanoma,3.94 µM
same,TGI,SK-MEL-28 melanoma,21.3 µM
same,GI50,SK-MEL-5 melanoma,5.05 µM
same,TGI,SK-MEL-5 melanoma,17.9 µM
same,GI50,SN12C renal,3.65 µM
same,TGI,SN12C renal,25.1 µM
same,GI50,SNB-19 CNS,4.58 µM
same,TGI,SNB-19 CNS,> 100 µM
same,GI50,SNB-75 CNS,12.8 µM
same,TGI,SNB-75 CNS,> 100 µM
same,GI50,SR leukemia,3.57 µM
same,TGI,SR leukemia,> 100 µM
same,GI50,SW-620 colon,4.01 µM
same,TGI,SW-620 colon,24 µM
same,GI50,T-47D breast,2.31 µM
same,TGI,T-47D breast,17.6 µM
same,GI50,TK-10 renal,8.06 µM
same,TGI,TK-10 renal,55.6 µM
same,GI50,U251 CNS,2.98 µM
same,TGI,U251 CNS,21.6 µM
same,GI50,UACC-257 melanoma,2.12 µM
same,TGI,UACC-257 melanoma,9.87 µM
same,GI50,UACC-62 melanoma,4.76 µM
same,TGI,UACC-62 melanoma,19.2 µM
same,GI50,UO-31 renal,2.44 µM
same,TGI,UO-31 renal,9.12 µM

# Reference: PubChem BioAssay (NCI)
